Data published in paper PMC3806475, “Marine Derived Hamacanthins as Lead for the Development of Novel PDGFRβ Protein Kinase Inhibitors” (Marine Drugs, 2013).

The chains behind the UniProt entries cited, without tags or fusion partners. Where a name states a change or a piece, a line headed by the entry shows the natural chain unless it says otherwise.
UniProt P11802: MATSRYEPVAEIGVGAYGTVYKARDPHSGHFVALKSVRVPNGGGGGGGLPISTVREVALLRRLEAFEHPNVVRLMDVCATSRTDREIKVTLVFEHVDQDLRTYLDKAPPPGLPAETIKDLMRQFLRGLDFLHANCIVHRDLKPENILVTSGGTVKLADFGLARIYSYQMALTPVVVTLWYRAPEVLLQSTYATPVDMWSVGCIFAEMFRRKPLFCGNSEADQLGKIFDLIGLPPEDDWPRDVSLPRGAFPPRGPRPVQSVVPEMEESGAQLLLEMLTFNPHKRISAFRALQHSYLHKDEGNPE

Assays:
CDK4/CycD1 = CDK4/CycD1 (Homo sapiens, UniProt P11802); test: 33PanQinase protein kinase activity assay; assay type: biochemical; conditions: recombinant kinase, 1 µM ATP
CDK2/CycA = CDK2/CycA (Homo sapiens, UniProt P24941); test: 33PanQinase protein kinase activity assay; assay type: biochemical; conditions: recombinant kinase, 1 µM ATP

`COc1cc(-c2nc(-c3c[nH]c4ccccc34)c[nH]c2=O)cc(OC)c1OC` [Compound 5, 5-(1H-indole-3-yl)-3-(3,4,5-trimethoxyphenyl)pyrazin-2(1H)-one] was tested. Which IC50 (CDK4/CycD1) did it give?
The IC50 was greater than 100 µM.

And the IC50 (CDK2/CycA)?
Its IC50 is greater than 100 µM.
